Measured values published in US6635641B2 (Agouron Pharmaceuticals, Inc., priority 2000, dated 2003).

The chains behind the UniProt entries cited, without tags or fusion partners. A line that says so, or that is headed by a name, gives the form on record, which may keep a tag or linker.
UniProt P35968, with tags, fused parts or gaps DEL940-989/E990V limits assumed: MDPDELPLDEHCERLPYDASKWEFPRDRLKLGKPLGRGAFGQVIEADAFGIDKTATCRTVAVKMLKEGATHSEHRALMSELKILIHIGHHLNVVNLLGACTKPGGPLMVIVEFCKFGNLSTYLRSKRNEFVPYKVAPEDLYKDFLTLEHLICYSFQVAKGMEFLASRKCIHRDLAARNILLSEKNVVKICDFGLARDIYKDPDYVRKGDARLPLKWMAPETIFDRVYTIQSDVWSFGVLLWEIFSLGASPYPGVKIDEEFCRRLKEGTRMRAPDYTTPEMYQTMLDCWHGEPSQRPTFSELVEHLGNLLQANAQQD

Biological target: T1, unphosphorylated VEGF-R2Δ50 (FLVK) (Homo sapiens, UniProt P35968, DEL940-989/E990V)
T1 construct: VEGF-R2Δ50 contains residues 806-939 and 990-1171; made in house; host or cells: baculovirus/insect cells
Assay: VEGF-R2 coupled spectrophotometric assay, unphosphorylated construct (FLVK);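 further: Baculovirus-expressed cytosolic kinase domain, ADP formation linked via pyruvate kinase and lactate dehydrogenase to NADH oxidation, read as falling absorbance at 340 nm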
Type: biochemical
Conditions: read-out: FLVK percent inhibition
Source text: A construct (VEGF-R2Δ50) of the cytosolic domain of human vascular endothelial growth factor receptor 2 (VEGF-R2) lacking the 50 central residues of the 68 residues of the kinase insert domain was expressed in a baculovirus/insect cell system. Of the 1356 residues of full-length VEGF-R2, VEGF-R2Δ50 contains residues 806-939 and 990-1171, and also one point mutation (E990V) within the kinase insert domain relative to wild-type VEGF-R2. See commonly assigned, co-pending U.S. patent application Ser. No. 09/390,326, filed Sep. 7, 1999, incorporated by reference herein, for discussion of VEGF constructs and expression systems. […]
The production of ADP from ATP that accompanies phosphoryl transfer was coupled to oxidation of NADH using phosphoenolpyruvate (PEP) and a system having pyruvate kinase (PK) and lactic dehydrogenase (LDH). The oxidation of NADH was monitored by following the decrease of absorbance at 340 nm (e340=6.22 cm^−1 mM^−1) using a Beckman DU 650 spectrophotometer. […] Ki values were determined by measuring enzyme activity in the presence of varying concentrations of test compounds. The data were analyzed using Enzyme Kinetic and Kaleidagraph software.

Cc1cc(NC(=O)c2cccc(OCc3ccc(N)nc3)c2)ccc1C(C)C [Example L-1, 3-(6-Aminopyridin-3-yl)methoxy-N-(4-Isopropyl-3-methyl-phenyl)-benzamide]
inhibition at 0.05 µM: 3%
